Structures can show the parent of a compound that is named as a salt. Where two headings read alike, the source gives them in different places.

By UniProt entry, the sequences of proteins in these tests, tags left out. Where a name states a change or a piece, a line headed by the entry shows the natural chain unless it says otherwise. Residues count along the entry.
UniProt Q9GZT9, 179-426: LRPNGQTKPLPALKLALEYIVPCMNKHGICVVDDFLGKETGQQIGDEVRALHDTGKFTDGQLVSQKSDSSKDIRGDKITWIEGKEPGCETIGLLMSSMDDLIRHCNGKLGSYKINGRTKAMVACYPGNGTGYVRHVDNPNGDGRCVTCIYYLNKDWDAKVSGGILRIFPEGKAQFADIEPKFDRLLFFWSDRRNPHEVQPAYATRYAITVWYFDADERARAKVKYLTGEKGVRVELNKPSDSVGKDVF
UniProt Q9H6Z9: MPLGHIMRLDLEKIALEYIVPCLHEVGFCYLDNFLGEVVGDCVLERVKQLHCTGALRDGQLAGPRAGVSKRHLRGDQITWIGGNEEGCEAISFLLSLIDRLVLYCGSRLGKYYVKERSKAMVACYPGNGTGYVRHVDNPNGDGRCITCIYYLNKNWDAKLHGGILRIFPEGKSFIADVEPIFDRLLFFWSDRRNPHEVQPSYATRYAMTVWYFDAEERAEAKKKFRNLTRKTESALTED

For experiment [1], the target named is Recombinant human EGLN-1-179/426 (Homo sapiens (Human), UniProt Q9GZT9). As to the kind of experiment: EGLN-1 Activity Assay (MALDI-TOF MS). Particulars: read-out: EGLIN1 IC50. The format is biochemical. How it is done:
(§1) Hydroxylated peptide product is identified from substrate by the gain of 16 Da. Data defined as percent conversion of substrate to product is analyzed in GraphPad Prism 4 to calculate IC50 values.

Experiment [2] addresses Full-length recombinant human EGLN-3 (His-MBP-TVMV-EGLN-3 fusion) (Homo sapiens (Human), UniProt Q9H6Z9). As to the kind of experiment: EGLN-3 enzyme activity assay (MALDI-TOF MS). The class given is biochemical. Conditions: read-out: EGLIN3 IC50. The protocol: as §1

With `O=C(O)CNC(=O)c1ncc(-c2cccc(Cl)c2)cc1O` [{[5-(3-Chlorophenyl)-3-hydroxypyridine-2-carbonyl]amino}-acetic acid], the figures for the IC50 in experiment [1] and in experiment [2] were 1100 nM and 390 nM, respectively. In the case of `O=C(O)CNC(=O)c1ncc(-c2cccc(Cl)c2)cc1O` [{[5-(3-Chlorophenyl)-3-hydroxypyridine-2-carbonyl]amino}-acetic acid trifluoroacetic acid salt], in experiment [1] (trifluoroacetic acid salt), the IC50 was 410 nM.

These data come from patent publication US8598210B2, “Prolyl hydroxylase inhibitors and methods of use” (Akebia Therapeutics Inc., priority 2006, dated 2013).
